Test results reported in ChEMBL document CHEMBL1129689, “Unsaturated side chain beta-11-hydroxyhexahydrocannabinol analogs” (J Med Chem, 1996).

Amino acid sequences for entries named in this document (tags omitted).
UniProt P20272, whole entry: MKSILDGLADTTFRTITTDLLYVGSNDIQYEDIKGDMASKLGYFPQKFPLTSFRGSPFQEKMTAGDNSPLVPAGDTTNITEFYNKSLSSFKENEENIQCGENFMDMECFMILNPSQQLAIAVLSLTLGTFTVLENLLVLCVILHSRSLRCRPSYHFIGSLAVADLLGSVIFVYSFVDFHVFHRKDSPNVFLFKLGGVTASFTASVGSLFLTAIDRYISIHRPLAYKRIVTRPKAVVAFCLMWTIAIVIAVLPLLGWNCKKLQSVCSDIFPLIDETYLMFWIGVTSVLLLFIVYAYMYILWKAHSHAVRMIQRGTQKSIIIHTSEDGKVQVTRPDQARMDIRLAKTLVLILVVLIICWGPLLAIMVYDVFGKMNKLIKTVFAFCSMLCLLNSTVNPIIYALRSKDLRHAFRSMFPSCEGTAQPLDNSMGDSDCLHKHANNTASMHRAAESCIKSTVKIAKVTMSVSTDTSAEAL

Molecular target: Cannabinoid receptor 1 (Rattus norvegicus, UniProt P20272)
Experiment: Compound was evaluated for its ability to displace specifically bound [3H]CP-55940 from a Cannabinoid receptor 1 enriched rat brain microsome preparation.

Question: How did the Ki turn out when `CCCCCCCc1cc(O)c2c(c1)OC(C)(C)[C@@H]1CC[C@@H](CO)C[C@@H]21` was run?
Answer: 8.7 nM
